Tests used:
[1] = molecular target: Mitogen-activated protein kinase 1 (Homo sapiens, UniProt P28482); test: Inhibition of ERK2 (unknown origin) measured after 2 hr by ADP-glo assay
[2] = molecular target: Mitogen-activated protein kinase 3 (Homo sapiens, UniProt P27361); test: Inhibition of ERK1 (unknown origin) measured after 2 hr by ADP-glo assay

By UniProt entry, the sequences of proteins in these tests, tags left out.
UniProt P28482, whole entry: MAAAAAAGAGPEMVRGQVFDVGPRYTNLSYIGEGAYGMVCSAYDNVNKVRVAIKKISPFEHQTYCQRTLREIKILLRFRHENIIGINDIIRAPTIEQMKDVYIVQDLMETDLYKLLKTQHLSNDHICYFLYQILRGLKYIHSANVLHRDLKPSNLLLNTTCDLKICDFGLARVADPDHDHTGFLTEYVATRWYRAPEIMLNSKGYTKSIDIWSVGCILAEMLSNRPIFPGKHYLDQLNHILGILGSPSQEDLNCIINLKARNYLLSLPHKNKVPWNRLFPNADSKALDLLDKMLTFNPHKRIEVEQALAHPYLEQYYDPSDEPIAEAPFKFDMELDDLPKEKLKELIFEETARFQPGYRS
UniProt P27361, whole entry: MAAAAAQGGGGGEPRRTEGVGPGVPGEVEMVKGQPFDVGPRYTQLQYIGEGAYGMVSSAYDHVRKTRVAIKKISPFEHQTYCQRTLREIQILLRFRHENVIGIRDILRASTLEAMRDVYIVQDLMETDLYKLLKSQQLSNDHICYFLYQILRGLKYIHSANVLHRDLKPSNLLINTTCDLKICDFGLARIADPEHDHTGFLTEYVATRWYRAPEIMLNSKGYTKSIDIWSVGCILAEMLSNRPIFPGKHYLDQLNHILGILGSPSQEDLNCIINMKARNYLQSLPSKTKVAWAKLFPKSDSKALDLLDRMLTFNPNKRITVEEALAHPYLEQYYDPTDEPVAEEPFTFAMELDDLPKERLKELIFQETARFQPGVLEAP

IC50 [1]	SMILES	IC50 [2]
7.2 nM	C[C@@H](CO)Nc1ncc(Cl)c(-c2cc3n(c2)C(=O)N([C@H](CO)c2cccc(Cl)c2)C3)n1	–
–	Cc1cnc(Nc2ccnn2C)nc1-c1cc2n(c1)C(=O)N([C@H](CO)c1cccc(Cl)c1)C2	2.75 nM

Reference: ChEMBL document CHEMBL5046322, “Discovery of SHR2415, a Novel Pyrrole-Fused Urea Scaffold ERK1/2 Inhibitor” (ACS Med Chem Lett, 2022)
